Chains of the proteins cited; added tags and fusions are not shown.
ATP-dependent Clp protease proteolytic subunit (Bacillus subtilis (strain 168)), P80244, UniProt P80244, whole entry, looked up: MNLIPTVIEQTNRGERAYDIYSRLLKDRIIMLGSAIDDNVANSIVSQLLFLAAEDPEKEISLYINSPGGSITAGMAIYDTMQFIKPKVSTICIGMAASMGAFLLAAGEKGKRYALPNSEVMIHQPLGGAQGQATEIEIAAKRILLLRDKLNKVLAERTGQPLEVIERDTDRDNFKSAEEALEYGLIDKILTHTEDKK

# Screening results from PubChem BioAssay.
# A549 tox = counter-screen for Nrf2 inhibitors: cytotoxicity in A549 cells; A549 ARE-Fluc cells, CellTiter-Fluor viability, 18-24 h; Potency, µM (doses to about 46 µM), without a hit: at the top dose activity change, negative = cytotoxicity, usual class: inhibitors; actives 0.16% (n = 390,000); AID 504648; further: potency means the concentration at half of the fitted maximal effect; on the % scale 0 is the no-effect control and ±100 the full control effect
#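 Cytotoxicity counterscreen: CellTiter-Fluor fluorescence was measured in A549 ARE_Fluc cells after 18-24 h of compound exposure in a concentration series. The subsequent BugLite luminescent read reports ARE-luciferase activity.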
# Nrf2 block = Nrf2 pathway inhibition; AID 504444; actives 2.1% (n = 360,000); A549 ARE-Fluc reporter, luciferase luminescence, 18-24 h; Potency, µM (highest dose often 46 µM), for inactives: top-dose activity change, negative = inhibition, actives largely listed as inhibitors; further: potency means the concentration at half of the fitted maximal effect; on the % scale 0 is the no-effect control and ±100 the full control effect; nearly all actives have a fitted effect of over 60% in size
#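 A549 ARE_Fluc cells (5000/well, 5% FBS OPTI-MEM) pre-incubated 2 h, then treated with compounds 18-24 h at 37C/5% CO2 in concentration-response. CellTiter-Fluor viability read first; BugLite luciferase luminescence after 15 min at room temperature gives Nrf2 activity.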
# miR-21 FLuc = miR-21 reporter, rising signal. HeLa miR-21 FLuc reporter, luciferase, 48 h. Potency, µM (highest dose often 38.3 µM), for the others: at the highest dose reporter change, positive = more light. 340,000 tested, under 10 active. AID 2288; active = well fitted rising curve with a large enough effect; inconclusive = small, poorly fitted or top-dose-only effect; inactive = no such curve, though single readings can be large or run the other way;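 further: % of control where 0% means no effect; miR-21 action dims this reporter so a rising signal means less miR-21 action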
#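 Luminescence from a firefly luciferase reporter carrying a miR-21 binding site downstream, stably expressed under a CMV promoter in HeLa cells that make miR-21 endogenously, reports miRNA modulation after 48 h compound exposure up to approximately 40uM final.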
# p53 reactivation = mutant p53 re-activation in reporter cells; H1299 p53-A138V BP100-luciferase reporter, luminescence, 24 h; Potency, µM (doses to about 92.2 µM), without a hit: top-dose activity change, positive = activation, hits mostly activators; actives 0.063% (n = 320,000); further: potency means the concentration at half of the fitted maximal effect; % of control where 0% means no effect; nearly all actives have a fitted effect of over 45% in size
#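 p53-null H1299 cells stably carrying temperature-sensitive p53-A138V and a BP100-luciferase reporter were pinned with compounds (4-point, 1:5 series) and held 24 hrs at 37 deg C. Luminescence was read 10 min after detection reagent.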
# Nrf2 ARE act = activators of Nrf2 (ARE) signaling. AREc32 ARE-luciferase reporter (MCF7-derived line), luminescence, 24 h. Potency, µM (doses to about 46.1 µM), without a hit: at the highest dose activation, usual class: activators. actives 0.31% (n = 410,000). AID 624171; further: potency means the concentration at half of the fitted maximal effect; % of control where 0% means no effect; nearly all actives have a fitted effect of over 65% in size
#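 ARE-driven firefly luciferase activity in AREc32 cells measured after a 24 hr compound exposure at 37 deg C, using Steady-Glo reagent and a 30 min room-temperature hold.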
# ClpP mod = qHTS Assay for Activators of ClpP | Potency, µM (highest dose often 57.5 µM), inactives show top-dose activity change, negative = active | ATP-dependent Clp protease proteolytic subunit (Bacillus subtilis (strain 168)), P80244 | AID 651965, 2013 | actives 1.9% (n = 340,000) | purified B. subtilis ClpP, FRET peptide cleavage, 20 min; active means well fitted falling curve with a large enough effect; inconclusive means small, poorly fitted or top-dose-only effect; inactive means no such curve, though single readings can be large or run the other way; further: potency means the concentration at half of the fitted maximal effect; the source files actives as falling curves though it sought activators and does not explain the sign; nearly all actives have a fitted effect of over 65% in size
#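 Buffer: 100 mM Tris/HCl pH8, 100 mM KCl, 0.05% low protease BSA, 2.5% glycerol, 0.01% Tween-20. ClpP 10 microg/mL final; 20 min RT; delta FRET normalized to ADEP and DMSO controls.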
# An asterisk follows results filed as active; ? = inconclusive; . = no result; ! = not active in a repeat; [ ] = remark or other dose. This is a sample that favours compounds with a hit; in the whole collection about 3.7% have one here. Unless noted, the call rests on the fitted dose curve; in most records, active means well fitted curve in the direction sought with a large enough effect; inconclusive means small, poorly fitted or top-dose-only effect, or another doubt; inactive means no such curve, though single readings can be large; an effect the other way counts as inactive or inconclusive.
SMILES,A549 tox,Nrf2 block,miR-21 FLuc,p53 reactivation,Nrf2 ARE act,ClpP mod
COc1ccc(Cn2c(SCc3cc(C)ccc3C)nc3cc(OC)c(OC)cc3c2=N)cc1,18µM*,23µM*,-1%,4%,0%,-6%
COc1ccc(CNC(C)C2COc3ccccc3O2)c(OC)c1 (stereo not given),10%,.,-9%,-4%,-1%,28µM*
Clc1ccc(C=Cc2ccccn2)cc1,3%,?,.,.,8.9µM*,.
CCN(CC)c1ccccc1/C=C/[n+]1ccc(CCCCI)c2ccccc21,.,.,.,.,.,-2%
NCC(=O)Nc1cccc(-c2nn3c(=O)cc(N4CCNCC4)nc3s2)c1,-1%,11%,.,.,.,.
Cc1cc(C)cc(NC(=S)NCc2cccs2)c1,?,23µM*,-2%,0%,3%,-3%
CCc1nc2ccc(C(=O)N(C)CCN(C)C)cn2c1N(C)Cc1cc2ccccc2s1,.,.,.,.,0%[9.22 µM],-2%
COc1cc(OC)cc(-c2sc3ccc(OC)cc3c2-c2ccc(O)cc2)c1,-4%,-24%,.,0%,8%,?
COc1ccc(-c2c(-c3cc(OC)cc(OC)c3)sc3ccc(OC)cc23)cc1,8%,-1%,.,1%,1%,18µM*
COc1ccc(-c2c(-c3ccc(S(C)(=O)=O)cc3)sc3ccc(OC)cc23)cc1,-1%,?,.,-3%,3%,4%

# Just Nrf2 ARE act, A549 tox and p53 reactivation (two entries from above):
Structure | Nrf2 ARE act | A549 tox | p53 reactivation
CCc1nc2ccc(C(=O)N(C)CCN(C)C)cn2c1N(C)Cc1cc2ccccc2s1 | 0%[9.22 µM] | . | .
COc1ccc(-c2c(-c3cc(OC)cc(OC)c3)sc3ccc(OC)cc23)cc1 | 1% | 8% | 1%

# (list continues)
SMILES,A549 tox,Nrf2 block,miR-21 FLuc,p53 reactivation,Nrf2 ARE act,ClpP mod
COc1ccc(-c2sc3ccc(OC)cc3c2-c2ccc(O)cc2)cc1,0%,?,.,-19%,-1%,28µM*
CC(=O)NCCCc1ccc(C(=O)COC(=O)CNC(=O)c2ccc3ccccc3c2)cc1,0%,11%,.,.,.,-17%
O=C(/C=C/c1cc2c(cc1Br)OCO2)NCc1ccc(F)cc1,-1%,.,-7%,4%,0%,?
COc1ccc(CNC(=O)/C=C/c2cc3c(cc2Br)OCO3)cc1,-11%,.,-10%,-3%,-1%,25µM*
Cc1c(C(=O)NCc2ccccc2)oc2c1-c1[nH]ncc1CC2,0%,2%,-2%,.,6%,25µM*
O=C1/C(=C\c2ccco2)CCC/C1=C\c1ccco1,0%,8%,0%,25µM*,10µM*,-9%
COc1ccc(N=C2O/C(=C/c3sc(=S)n(CC4CCCO4)c3O)N=C2C#N)cc1 (stereo not given),9%,?,-7%,21%,3%,.
CCOC(=O)c1cccc(NC(=O)CCn2c(-c3ccc(F)cc3)cc(C(=O)OCC)c2C)c1,-14%,.,23%,.,5%,-19%
CC(C)(C)n1nnnc1C(c1ccc(C(F)(F)F)cc1)N(Cc1ccccc1)Cc1ccco1 (stereo not given),-27%,15µM*,-2%,8%,-1%,-1%
COC(C)c1oc2c(C)c3oc(=O)cc(C)c3cc2c1C (stereo not given),-1%,?,.,.,9%,-3%
COc1ccc2c(c1)NC(C)(C)C=C2C,-9%,-19%,-2%,-3%,0%,.
CC1=CC(C)(C)Nc2ccccc21,-5%,-7%,27%,-7%,-1%,28µM*!
COc1ccc(C(OC(=O)c2ccco2)C(=O)NC(C)(C)C)cc1OC (stereo not given),9%,?,.,.,0%,-2%
CCCOc1ccc(-c2nc(N3CCC(C)CC3)c3ccccc3n2)cc1,7%,5%,-11%,.,-1%,20µM*
CC1CCN(c2nc(-c3ccc(C(C)(C)C)cc3)nc3ccccc23)CC1,-3%,?,-52%,.,6%,?
CCCOc1ccc(-c2nc(OC)c3ccccc3n2)cc1,16%,5%,-37%,15%,7%,32µM*
C=C(CC[C@]12OC(C(=O)O)C(O)(C(=O)O)C(C(=O)O)(O1)C(OC(=O)/C=C/[C@@H](C)C[C@@H](C)CC)C2O)[C@@H](OC(C)=O)[C@H](C)Cc1ccccc1 (stereo not given in full),.,.,.,.,.,0%
O=S(=O)(NCC1CCN(c2ccc(S(=O)(=O)N3CCOCC3)cc2)CC1)c1ccc(F)cc1,?,21µM*,26%,7%,1%,.
Cc1ccc(C)c(-n2c(-c3ccc4c(c3)OCO4)n[nH]c2=S)c1,-6%,-10%,-10%,12%,0%,28µM*
O=C1CN(C(=O)Nc2ccccc2Cl)C(c2ccccc2)c2c(sc3c2CCCC3)N1 (stereo not given),6%,?,17%,.,0%,-2%
CCOc1cc(CNCCc2ccc(S(N)(=O)=O)cc2)ccc1OCc1ccc(Cl)cc1,?,.,?,-10%,-2%,-16%
COc1cc(CNCCc2ccc(S(N)(=O)=O)cc2)ccc1OCc1ccc(Cl)cc1,?,23µM*,26%,-20%,8%,0%
CC(=O)Nc1nc2c(F)cccc2s1,-1%,?,.,.,0%,-1%
O=C(Nc1nc2c(F)cccc2s1)c1ccco1,1%,?,-18%,.,7.1µM*,-1%
O=C(Nc1nc(-c2ccncc2)cs1)c1ccco1,-8%,10%,-27%,17%,?,3%
Fc1cccc2sc(Nc3nnc(-c4ccco4)o3)nc12,9%,20%,-26%,?,?,25µM*
COc1cccc2sc(Nc3nnc(-c4ccc(F)cc4)o3)nc12,-3%,-10%,5%,-1%,22%,4%
O=C(Nc1nc(-c2cccs2)cs1)c1ccco1,6%,?,-47%,3%,13µM*,-14%
COc1ccc([N+](=O)[O-])cc1NC(c1nnc(-c2ccccc2)o1)c1ccccc1F (stereo not given),-1%,5%,-4%,.,5%,-1%
CCC1CCCCN1CCCNC(=O)c1ccc2c(c1)N(Cc1ccc(Cl)cc1)C(=O)c1ccccc1S2(=O)=O (stereo not given),-10%,16%,?,.,-4%,-4%

# Copied from the listing (4 entries):
SMILES,A549 tox,Nrf2 block,miR-21 FLuc,p53 reactivation,Nrf2 ARE act,ClpP mod
CCOc1cc(CNCCc2ccc(S(N)(=O)=O)cc2)ccc1OCc1ccc(Cl)cc1,?,.,?,-10%,-2%,-16%
COc1cc(CNCCc2ccc(S(N)(=O)=O)cc2)ccc1OCc1ccc(Cl)cc1,?,23µM*,26%,-20%,8%,0%
CC(=O)Nc1nc2c(F)cccc2s1,-1%,?,.,.,0%,-1%
O=C(Nc1nc2c(F)cccc2s1)c1ccco1,1%,?,-18%,.,7.1µM*,-1%

# (listing goes on)
SMILES,A549 tox,Nrf2 block,miR-21 FLuc,p53 reactivation,Nrf2 ARE act,ClpP mod
CC1=C(C(=O)OC(C)C)C(c2coc3ccccc3c2=O)C2=C(CCCC2=O)N1 (stereo not given),-26%,.,-4%,-5%,-1%,3.5µM*
COc1ccc(-n2nc3cc(C)c(NC(=O)c4cccnc4)cc3n2)cc1,-18%,-5%,-8%,28%,2%,25µM*
Cc1cc2nn(-c3ccccc3)nc2cc1NC(=O)c1cccs1,-17%,19%,-35%,6%,7.1µM*,-12%
CC(=O)Nc1cc2nn(-c3ccccc3)nc2cc1C,-6%,?,-24%,.,0%,5%
